# Source: PubChem BioAssay AID797 (University of Pittsburgh Molecular Library Screening Center, 2007)
# Sequences of proteins named here, by UniProt entry; tags and fusion partners are left off.
# UniProt Q15139, whole entry: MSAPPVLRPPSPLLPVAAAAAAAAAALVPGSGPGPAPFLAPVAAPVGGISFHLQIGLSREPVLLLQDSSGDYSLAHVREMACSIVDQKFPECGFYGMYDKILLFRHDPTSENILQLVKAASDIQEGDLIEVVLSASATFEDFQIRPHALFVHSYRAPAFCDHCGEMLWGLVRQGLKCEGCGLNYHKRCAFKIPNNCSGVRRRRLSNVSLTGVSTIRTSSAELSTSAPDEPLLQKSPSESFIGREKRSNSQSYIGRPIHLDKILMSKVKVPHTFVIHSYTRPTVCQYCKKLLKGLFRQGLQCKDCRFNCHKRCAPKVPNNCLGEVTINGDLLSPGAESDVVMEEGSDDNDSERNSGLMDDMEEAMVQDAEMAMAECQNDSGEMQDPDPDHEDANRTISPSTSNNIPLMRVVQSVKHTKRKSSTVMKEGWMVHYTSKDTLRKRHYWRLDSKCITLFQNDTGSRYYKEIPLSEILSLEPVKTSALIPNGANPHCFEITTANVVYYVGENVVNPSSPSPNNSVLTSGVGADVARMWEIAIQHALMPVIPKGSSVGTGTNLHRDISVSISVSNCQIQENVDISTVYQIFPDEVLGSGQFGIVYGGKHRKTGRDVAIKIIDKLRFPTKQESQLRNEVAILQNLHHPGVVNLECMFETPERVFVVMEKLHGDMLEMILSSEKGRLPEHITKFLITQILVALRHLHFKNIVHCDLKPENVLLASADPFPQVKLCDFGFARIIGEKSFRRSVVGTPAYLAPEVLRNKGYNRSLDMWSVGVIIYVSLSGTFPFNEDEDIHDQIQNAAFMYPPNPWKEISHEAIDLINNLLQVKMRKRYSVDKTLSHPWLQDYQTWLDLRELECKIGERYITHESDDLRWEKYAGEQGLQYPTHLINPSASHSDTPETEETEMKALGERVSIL
# The entries are a selection whose mix differs from that of the whole data set. Some of these compounds have results that are not shown, active ones among them. Active and inactive are the calls of the source. Rule as the data show it: active = inhibition above about 50%; inactive = the rest.
# Target: Serine/threonine-protein kinase D1 (Homo sapiens) (UniProt Q15139)
# Assay: inhibitors of human PKD1 kinase, biochemical, fluorescence polarization (AID 797)
# Conditions: PKD1 kinase fluorescence polarization assay; hits give high values; concentration not given here
row,Compound,inhibition
1,COc1cccc(C(=O)NCC2(N3CCCCC3)CCCCC2)c1,inactive: -1.78%
2,CN(C)c1cccc(C(=O)NCC2(N(C)C)CCCCC2)c1,inactive: 5.25%
3,O=C(OC1CN2CCC1CC2)C(CO)(c1ccccc1)c1ccccc1 (centres undefined),inactive: 0.9%
4,CC(C)N1C(=O)CC2(CCN(CCOC(=O)C(O)(c3ccccc3)c3ccccc3)CC2)C1=O,inactive: -7.31%
5,O=C(NCC1(N2CCCCC2)CCCCC1)c1cc([N+](=O)[O-])ccc1Cl,inactive: -0.21%
6,CCN1CCCC(OC(=O)C2(O)c3ccccc3C=Cc3ccccc32)C1 (centres undefined),inactive: 9.67%
7,C=CCN1CCN(CCOC(=O)C(O)(c2ccccc2)c2ccccc2)CC1,inactive: -2.52%
8,Cc1ccccc1C(=O)NCC1(N2CCCCC2)CCCCC1,inactive: -4.2%
9,CN(C)C1CCCC1OC(=O)C(O)(c1ccccc1)c1ccccc1 (centres undefined),inactive: -2.41%
